The values below come from PubChem BioAssay (Tox21).

Sequences of proteins named here, by UniProt entry; tags and fusion partners are left off. A change or cut given only in a name is not applied to a line headed by its entry.
UniProt P10275: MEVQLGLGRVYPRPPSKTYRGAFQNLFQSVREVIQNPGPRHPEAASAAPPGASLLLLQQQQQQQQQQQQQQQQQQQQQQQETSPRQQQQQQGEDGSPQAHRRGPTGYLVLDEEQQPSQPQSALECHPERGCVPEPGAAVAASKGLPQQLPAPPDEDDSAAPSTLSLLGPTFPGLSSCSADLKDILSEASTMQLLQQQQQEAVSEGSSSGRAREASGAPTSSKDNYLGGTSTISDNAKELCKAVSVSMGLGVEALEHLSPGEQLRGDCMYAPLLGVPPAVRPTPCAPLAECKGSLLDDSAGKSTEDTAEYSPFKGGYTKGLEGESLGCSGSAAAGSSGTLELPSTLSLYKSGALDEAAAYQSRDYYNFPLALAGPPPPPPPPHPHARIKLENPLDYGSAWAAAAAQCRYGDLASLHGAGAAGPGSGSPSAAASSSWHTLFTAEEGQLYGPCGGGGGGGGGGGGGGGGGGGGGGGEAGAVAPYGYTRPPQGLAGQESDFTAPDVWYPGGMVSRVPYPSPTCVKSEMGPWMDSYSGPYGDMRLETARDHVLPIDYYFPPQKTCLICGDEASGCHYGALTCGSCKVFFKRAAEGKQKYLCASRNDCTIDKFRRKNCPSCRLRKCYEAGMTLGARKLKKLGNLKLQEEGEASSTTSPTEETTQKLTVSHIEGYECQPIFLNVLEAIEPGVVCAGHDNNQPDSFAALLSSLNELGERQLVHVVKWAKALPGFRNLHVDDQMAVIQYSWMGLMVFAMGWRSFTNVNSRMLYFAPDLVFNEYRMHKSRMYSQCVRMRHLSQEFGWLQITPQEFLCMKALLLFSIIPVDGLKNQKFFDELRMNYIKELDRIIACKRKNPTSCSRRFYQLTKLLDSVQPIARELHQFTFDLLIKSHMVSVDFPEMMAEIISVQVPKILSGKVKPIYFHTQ
UniProt P03372, whole entry, looked up: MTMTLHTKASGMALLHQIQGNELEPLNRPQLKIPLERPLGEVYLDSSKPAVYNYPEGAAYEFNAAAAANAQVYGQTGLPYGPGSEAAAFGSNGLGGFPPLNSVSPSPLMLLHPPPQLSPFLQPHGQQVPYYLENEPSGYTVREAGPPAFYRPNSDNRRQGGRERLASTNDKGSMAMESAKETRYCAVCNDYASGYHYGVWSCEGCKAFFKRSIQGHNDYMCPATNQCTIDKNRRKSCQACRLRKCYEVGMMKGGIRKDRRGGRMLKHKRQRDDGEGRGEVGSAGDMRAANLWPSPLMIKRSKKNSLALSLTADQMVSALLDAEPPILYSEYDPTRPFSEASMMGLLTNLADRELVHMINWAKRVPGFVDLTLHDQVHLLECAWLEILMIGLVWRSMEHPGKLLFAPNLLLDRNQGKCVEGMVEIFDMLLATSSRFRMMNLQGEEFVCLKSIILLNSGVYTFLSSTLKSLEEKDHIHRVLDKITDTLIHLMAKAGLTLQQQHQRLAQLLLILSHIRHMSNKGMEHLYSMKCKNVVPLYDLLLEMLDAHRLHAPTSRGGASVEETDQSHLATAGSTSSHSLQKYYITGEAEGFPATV
UniProt Q96RI1: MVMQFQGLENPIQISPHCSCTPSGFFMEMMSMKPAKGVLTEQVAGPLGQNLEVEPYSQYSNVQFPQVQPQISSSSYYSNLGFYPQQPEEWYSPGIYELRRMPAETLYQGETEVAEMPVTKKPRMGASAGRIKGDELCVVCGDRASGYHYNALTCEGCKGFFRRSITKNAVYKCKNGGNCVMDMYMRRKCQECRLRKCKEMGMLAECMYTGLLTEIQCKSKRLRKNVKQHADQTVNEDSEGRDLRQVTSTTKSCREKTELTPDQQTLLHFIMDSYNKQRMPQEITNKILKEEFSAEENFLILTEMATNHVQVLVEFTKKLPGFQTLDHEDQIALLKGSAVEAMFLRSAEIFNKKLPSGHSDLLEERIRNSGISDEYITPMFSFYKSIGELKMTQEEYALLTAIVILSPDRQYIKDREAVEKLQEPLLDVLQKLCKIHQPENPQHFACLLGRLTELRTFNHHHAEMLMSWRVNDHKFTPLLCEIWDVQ
UniProt Q92731, whole entry, looked up: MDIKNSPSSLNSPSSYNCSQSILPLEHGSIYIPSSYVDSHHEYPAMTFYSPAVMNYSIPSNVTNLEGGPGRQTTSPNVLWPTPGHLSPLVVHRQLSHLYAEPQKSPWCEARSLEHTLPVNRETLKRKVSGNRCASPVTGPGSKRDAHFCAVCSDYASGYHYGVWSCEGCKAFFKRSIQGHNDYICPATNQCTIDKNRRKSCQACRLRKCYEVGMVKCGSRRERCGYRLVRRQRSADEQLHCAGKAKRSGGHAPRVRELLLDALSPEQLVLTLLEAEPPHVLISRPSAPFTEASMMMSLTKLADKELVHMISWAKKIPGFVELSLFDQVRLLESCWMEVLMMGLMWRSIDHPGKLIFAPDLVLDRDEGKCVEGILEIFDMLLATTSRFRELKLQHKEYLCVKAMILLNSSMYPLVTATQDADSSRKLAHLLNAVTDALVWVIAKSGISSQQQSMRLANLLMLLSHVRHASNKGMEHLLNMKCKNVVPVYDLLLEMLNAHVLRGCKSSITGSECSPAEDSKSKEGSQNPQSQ

Each structure is given as a SMILES string. “And” between values parts separate entries of the source, which are not always exact repeats. Identical values can stand only once. For part of these data: Shown are results outside the selection of hits, which stands elsewhere. The list shows a part of the results, in another mix than the full data. The source made the active and inactive calls. Unless noted, calls come from the whole dose curve.

In one assay the target is Androgen receptor (Homo sapiens) (UniProt P10275). Nature of the assay: qHTS assay to identify small molecule agonists of the androgen receptor (AR) signaling pathway using the MDA cell line (AID 743040; active = well fitted curve in the direction sought with a large enough effect in the repeat runs; inconclusive = weak or mixed curves; inactive = no such curve, though single readings can be large; an effect the other way counts as inactive or inconclusive; note: % is set by controls: 0 for no effect and ±100 for the full control effect; nearly all actives have a fitted effect of over 20% in size). The settings on record: MDA-kb2 AR-luc cells, MMTV luciferase, 16 h, stronger effect = higher value; at 70.3 µM (top of the series) unless noted.
For `Clc1ccc(CSC(Cn2ccnc2)c2ccc(Cl)cc2Cl)cc1` (stereo unspecified), the activity change was inactive: -7.75% [at 32.5 µM].
Regarding `Clc1ccc(COC(Cn2ccnc2)c2ccc(Cl)cc2Cl)cc1` (stereo unspecified), the activity change was inactive: -10.4% and inactive: -11% and inactive: -12.4%.
Same read-out and setting: then `Clc1ccc(CCC(Cn2ccnc2)Sc2c(Cl)cccc2Cl)cc1` (stereo unspecified), with inactive: -5.05% [at 32.5 µM].

The target is the same in another assay. Nature of the assay: qHTS assay to identify small molecule antagonists of the androgen receptor (AR) signaling pathway using the MDA cell line (AID 743042; active = well fitted curve in the direction sought with a large enough effect in the repeat runs; inconclusive = weak or mixed curves; inactive = no such curve, though single readings can be large; an effect the other way counts as inactive or inconclusive; note: nearly all actives have a fitted effect of over 55% in size; note: potency is the fitted concentration of half-maximal effect; for activity change, negative = inhibition: % is set by controls: 0 for no effect and ±100 for the full control effect). The settings on record: MDA-kb2 AR-luc, MMTV luciferase, R1881 antagonist, 16 h; series mostly up to 70.3 µM; activity change, negative = inhibition: at the top concentration. A general note: qHTS replaces the single test concentration by a dilution series.
Consider `Clc1ccc(CSC(Cn2ccnc2)c2ccc(Cl)cc2Cl)cc1` (stereo unspecified), for which the “activity change, negative = inhibition” value is inactive: -9.15% [at 32.5 µM].
With `Clc1ccc(COC(Cn2ccnc2)c2ccc(Cl)cc2Cl)cc1` (stereo unspecified), the Potency was active: 29.8 µM and active: 25.5 µM and active: 54.3 µM.
As to `Clc1ccc(CCC(Cn2ccnc2)Sc2c(Cl)cccc2Cl)cc1` (stereo unspecified), the “activity change, negative = inhibition” value was inactive: -3.7% [at 32.5 µM].

Another assay concerns the target Estrogen receptor (Homo sapiens) (UniProt P03372). In words: qHTS assay to identify small molecule antagonists of the estrogen receptor alpha (ER-alpha) signaling pathway (AID 743069; active = well fitted curve in the direction sought with a large enough effect in the signal ratio in the repeat runs, not every such curve was filed as active; inconclusive = weak or mixed curves, or effect the other way; inactive = no such curve, though single readings can be large or run the other way; the % refers to the signal ratio; note: % is set by controls: 0 for no effect and ±100 for the full control effect). Particulars: HEK293 ER-alpha-UAS-bla, beta-lactamase ratio, antagonist mode; at 32.6 µM (top of the series).
Turning to `Clc1ccc(CSC(Cn2ccnc2)c2ccc(Cl)cc2Cl)cc1` (stereo unspecified), the activity, negative = inhibition is inactive: 14.7%.
Same read-out and setting: then `C[N+]1(C)[C@@H]2CC[C@H]1CC(OC(=O)C(CO)c1ccccc1)C2` (stereo partly specified), with inactive: 1.11%; and `CNC(C)(C)Cc1ccccc1`, with inactive: 7.77%.
On the same count and under the same terms, in the case of `Clc1ccc(CCC(Cn2ccnc2)Sc2c(Cl)cccc2Cl)cc1` (stereo unspecified) it was inactive: 12.9%.

Staying with this assay, now noted: HEK293 ER-alpha-UAS-bla, beta-lactamase ratio, antagonist mode; at 69.4 µM (top of the series).
For the molecule `C[N+]1(C)[C@@H]2CC[C@H]1CC(OC(=O)C(CO)c1ccccc1)C2` (stereo partly specified), the activity, negative = inhibition is inactive: 6.44%.
The same measure, in the same setting: in the case of `OC[P+](CO)(CO)CO` it was inactive: 7.34%; in that of `CCCn1cc[n+](C)c1`, inactive: -9.98%.

The same assay, now with this note: HEK293 ER-alpha-UAS-bla, beta-lactamase ratio, antagonist mode; at 79.1 µM (top of the series).
Regarding `OC[P+](CO)(CO)CO`, the activity, negative = inhibition is inactive: -6.64%.
On to `CCN`, for which the activity, negative = inhibition was inactive: -3.82%.
On the same count and under the same terms, in the case of `CCCn1cc[n+](C)c1` it was inactive: -1.56% and inactive: -5.22%; in that of `Nc1nc(N)c(N)c(N)n1`, inactive: -7.37%.

For another assay the target is unchanged. In words: qHTS assay to identify small molecule agonists of the estrogen receptor alpha (ER-alpha) signaling pathway (AID 743075).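 Note: HEK293 GripTite cells with ER-alpha and UAS-driven beta-lactamase reporter.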 Note: potency is the fitted concentration of half-maximal effect. The settings on record: HEK293 ER-alpha-UAS-bla, beta-lactamase FRET ratio, 18 h; series mostly up to 70.1 µM; activation: at the top concentration.
On to `Clc1ccc(CSC(Cn2ccnc2)c2ccc(Cl)cc2Cl)cc1` (stereo unspecified), for which the “activation” value is inactive: 5.39% [at 32.9 µM].
Consider `C[N+]1(C)[C@@H]2CC[C@H]1CC(OC(=O)C(CO)c1ccccc1)C2` (stereo partly specified), for which the Potency entry was “inactive”.
Turning to `CCCCCCCCCCCCCCCCn1cc[n+](C)c1`, the “activation” value is inactive: -3.35%.
Turning to `OC[P+](CO)(CO)CO`, the Potency result is “inactive”.
`CCN`: the “activation” value was inactive: 1.22% [at 79.1 µM].
For `CCCn1cc[n+](C)c1`, the Potency result is “inactive”.
Turning to `Clc1ccc(CO/N=C(\Cn2ccnc2)c2ccc(Cl)cc2Cl)c(Cl)c1`, the “activation” value was inactive: 7.97%.
Turning to `CNC(C)(C)Cc1ccccc1`, the “activation” value was inactive: -0.792% [at 32.9 µM].
Turning to `CCCCCCCCCCn1cc[n+](C)c1`, the Potency is active: 13.8 µM [inconclusive].
With `Clc1ccc(CCC(Cn2ccnc2)Sc2c(Cl)cccc2Cl)cc1` (stereo unspecified), the “activation” value is inactive: 8.15% [at 32.9 µM].
The same measure, in the same setting: then `CCCCCCCCCCCCN=C(N)N`, with inactive: -3.02% [at 3.01 µM]; and `Nc1nc(N)c(N)c(N)n1`, with inactive: 1.3% [at 79.1 µM].

For a further assay, the target named is Bile acid receptor (Homo sapiens) (UniProt Q96RI1). Nature of the assay: qHTS assay to identify small molecule antagonists of the farnesoid-X-receptor (FXR) signaling pathway (AID 743217; active = well fitted inhibition curve with a large enough effect in the signal ratio in the repeat runs, not every such curve was filed as active; inconclusive = weak or mixed curves, or effect the other way; inactive = no such curve, though single readings can be large or run the other way; the % refers to the signal ratio; note: % is set by controls: 0 for no effect and ±100 for the full control effect). The settings on record: HEK293T FXR-UAS-bla, beta-lactamase ratio, CDCA-stimulated, 16 h; at 81.1 µM (top of the series) unless noted. The essentials: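 Quantitative HTS, beta-lactamase reporter format: FXR-UAS-bla HEK 293T cells co-treated 16 h at 37 °C with compounds and 50 uM final chenodeoxycholic acid, then read by B/G FRET fluorescence.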
Take `CN(C)C1CSSSC1`: the activity change, negative = inhibition is inactive: 7.08% [at 62.6 µM].
As to `Clc1ccc(CO/N=C(\Cn2ccnc2)c2ccc(Cl)cc2Cl)c(Cl)c1`, the activity change, negative = inhibition is inactive: -1.06% [at 62.6 µM].
Same read-out and setting: then `Nc1nc(N)c(N)c(N)n1`, with inactive: -2.46%.

The next assay has the same target. In words: qHTS assay to identify small molecule agonists of the farnesoid-X-receptor (FXR) signaling pathway (AID 743220; active = well fitted activation curve with a large enough effect in the signal ratio in the repeat runs, not every such curve was filed as active; inconclusive = weak or mixed curves, or effect the other way; the % refers to the signal ratio; note: % is set by controls: 0 for no effect and ±100 for the full control effect). Particulars: HEK293T FXR-UAS-bla, beta-lactamase FRET ratio, 16 h; at 62.6 µM (top of the series) unless noted.
Consider `CN(C)C1CSSSC1`, for which the activation is inactive: 3.74%.
On the same count and under the same terms, in the case of `Clc1ccc(CO/N=C(\Cn2ccnc2)c2ccc(Cl)cc2Cl)c(Cl)c1` it was inactive: 6.88%; in that of `Clc1ccc(CCC(Cn2ccnc2)Sc2c(Cl)cccc2Cl)cc1` (stereo unspecified), inactive: 9.91%.

A further assay has as its target Androgen receptor (Homo sapiens) (UniProt P10275). In words: qHTS assay to identify small molecule antagonists of the androgen receptor (AR) signaling pathway using the MDA cell line in the presence of 0.5 nM R1881 (AID 1259243; active = well fitted curve in the direction sought with a large enough effect in the repeat runs; inconclusive = weak or mixed curves; inactive = no such curve, though single readings can be large; an effect the other way counts as inactive or inconclusive; note: potency is the fitted concentration of half-maximal effect; nearly all actives have a fitted effect of over 50% in size). The settings on record: MDA-kb2 MMTV-luciferase, R1881 0.5 nM, 16 h; series mostly up to 42.5 µM; activity, negative = inhibition: at the top concentration.
As for `Clc1ccc(CSC(Cn2ccnc2)c2ccc(Cl)cc2Cl)cc1` (stereo unspecified), the Potency was active: 11.9 µM.
Same read-out and setting: in the case of `Clc1ccc(COC(Cn2ccnc2)c2ccc(Cl)cc2Cl)cc1` (stereo unspecified) it was active: 12.8 µM and active: 17.2 µM and active: 13.3 µM; in that of `Clc1ccc(CCC(Cn2ccnc2)Sc2c(Cl)cccc2Cl)cc1` (stereo unspecified), active: 26.6 µM.

Another assay has as its target Estrogen receptor (Homo sapiens) (UniProt P03372). Nature of the assay: qHTS assay to identify small molecule antagonists of the estrogen receptor alpha (ER-alpha) signaling pathway using the BG1 cell line in the presence of 0.1 nM 17-beta-estradiol (AID 1259244; active = well fitted curve in the direction sought with a large enough effect in the repeat runs; inconclusive = weak or mixed curves; inactive = no such curve, though single readings can be large; an effect the other way counts as inactive or inconclusive; note: % is set by controls: 0 for no effect and ±100 for the full control effect; nearly all actives have a fitted effect of over 50% in size). Particulars: VM7Luc4E2 (BG1) ERE-luciferase, antagonist mode, 0.1 nM E2, 22 h; series mostly up to 92.4 µM; activity change, negative = inhibition: at the top concentration.
For `CC(CC(C(N)=O)(c1ccccc1)c1ccccc1)N(C)C` (stereo unspecified), the “activity change, negative = inhibition” value was inactive: 2.38% [at 42.5 µM].
Turning to `C[N+]1(C)[C@@H]2CC[C@H]1CC(OC(=O)C(CO)c1ccccc1)C2` (stereo partly specified), the “activity change, negative = inhibition” value was inactive: 13.4% [at 42.5 µM].
In the case of `OC[P+](CO)(CO)CO`, the Potency entry was “inactive”.
Take `CCN`: the “activity change, negative = inhibition” value was inactive: -5.17%.
As for `CCCn1cc[n+](C)c1`, the Potency result was “inactive”.
As to `CNC(C)(C)Cc1ccccc1`, the “activity change, negative = inhibition” value was inactive: -5.12% [at 42.5 µM].
Still for that read-out and setting: in the case of `Nc1nc(N)c(N)c(N)n1` it was inactive: 8.19%.

In the next assay the target is Estrogen receptor beta (Homo sapiens) (UniProt Q92731). Nature of the assay: qHTS assay to identify small molecule antagonists of the estrogen receptor beta (ER-beta) signaling pathway (AID 1259378; active = well fitted inhibition curve with a large enough effect in the signal ratio in the repeat runs, not every such curve was filed as active; inconclusive = weak or mixed curves, or effect the other way; inactive = no such curve, though single readings can be large or run the other way; the % refers to the signal ratio; note: potency is the fitted concentration of half-maximal effect). Particulars: ER-beta-UAS-bla HEK293T, beta-lactamase FRET ratio, 16 h; series mostly up to 92.4 µM; activity, negative = inhibition: at the top concentration. The essentials: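 ER-beta-UAS-bla HEK293T cells in 2% charcoal-stripped FBS medium treated with compound plus 1nM final 17-beta-estradiol for 16 hr at 37C. Beta-lactamase reporter read by FRET substrate fluorescence after 2 hours at room temperature.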
For `CC(CC(C(N)=O)(c1ccccc1)c1ccccc1)N(C)C` (stereo unspecified), the “activity, negative = inhibition” value was inactive: -10.9% [at 42.5 µM].
On to `C[N+](C)(C)CC(=O)[O-]`, for which the Potency result is “inactive”.
In the case of `CN(C)C1CSSSC1`, the “activity, negative = inhibition” value was inactive: 1.6%.
Same read-out and setting: then `CNC(C)(C)Cc1ccccc1`, with inactive: 20.2% [at 42.5 µM].
On to `C[N+](C)(C)CC(=O)O`, for which the Potency result was “inactive”.
Regarding `C[N+](C)(C)Cc1ccccc1`, the Potency entry is “inactive”.
With `Cc1ccc(OP(=O)(Oc2ccc(C)cc2)Oc2ccc(C)cc2)cc1`, the “activity, negative = inhibition” value was inactive: -13.3%.
Consider `Oc1ccccc1-c1ccccc1`, for which the Potency entry was “inactive”.
For `C=CCOC(Cn1ccnc1)c1ccc(Cl)cc1Cl` (stereo unspecified), the Potency is active: 17.3 µM and active: 23.7 µM.
Take `C[N+]1(CCF)[C@@H]2CC[C@H]1CC(OC(=O)C(O)(c1ccccc1)c1ccccc1)C2` (stereo partly specified): the “activity, negative = inhibition” value was inactive: 1.45% [at 42.5 µM].
On the same count and under the same terms, then `Nc1nc(N)c(N)c(N)n1`, with inactive: 12.1%.

A further assay addresses Androgen receptor (Homo sapiens) (UniProt P10275). In words: qHTS assay to identify small molecule agonists of the androgen receptor (AR) signaling pathway in the presence of an antagonist (AID 1259381). Note: % is set by controls: 0 for no effect and ±100 for the full control effect; nearly all actives have a fitted effect of over 15% in size. Particulars: MDA-kb2 MMTV-luciferase, AR agonist + nilutamide, 16 h; at 42.5 µM (top of the series).
Regarding `Clc1ccc(CSC(Cn2ccnc2)c2ccc(Cl)cc2Cl)cc1` (stereo unspecified), the activation was inactive: -10.7%.
On the same count and under the same terms, then `Clc1ccc(COC(Cn2ccnc2)c2ccc(Cl)cc2Cl)cc1` (stereo unspecified), with inactive: -8.91%.
Same read-out and setting: then `Clc1ccc(CCC(Cn2ccnc2)Sc2c(Cl)cccc2Cl)cc1` (stereo unspecified), with inactive: -8.24%.

In a further assay the target is Estrogen receptor (Homo sapiens) (UniProt P03372). Nature of the assay: qHTS assay to identify small molecule agonists of the estrogen receptor alpha (ER-alpha) signaling pathway in the presence of an antagonist (AID 1259383). Note: top concentration of the series differs between compounds; % is set by controls: 0 for no effect and ±100 for the full control effect; nearly all actives have a fitted effect of over 15% in size. Particulars: VM7Luc4E2 cells, ERE-luciferase, +ICI-182,780, 22 h; at 42.5 µM (top of the series).
As to `Clc1ccc(CSC(Cn2ccnc2)c2ccc(Cl)cc2Cl)cc1` (stereo unspecified), the activation was inactive: -12.8%.
For `CC(CC(C(N)=O)(c1ccccc1)c1ccccc1)N(C)C` (stereo unspecified), the activation is inactive: -0.0716%.
The same measure, in the same setting: then `C[N+]1(C)[C@@H]2CC[C@H]1CC(OC(=O)C(CO)c1ccccc1)C2` (stereo partly specified), with inactive: 0.647%.
On the same count and under the same terms, in the case of `Clc1ccc(COC(Cn2ccnc2)c2ccc(Cl)cc2Cl)cc1` (stereo unspecified) it was inactive: -0.941%; in that of `Clc1ccc(CO/N=C(\Cn2ccnc2)c2ccc(Cl)cc2Cl)c(Cl)c1`, inactive: 2.18%; in that of `CNC(C)(C)Cc1ccccc1`, inactive: 0.754%.
Still for that read-out and setting: in the case of `Clc1ccc(CCC(Cn2ccnc2)Sc2c(Cl)cccc2Cl)cc1` (stereo unspecified) it was inactive: 0.0222%.
